Data on two molecules can be found in PMC5838147, “Modulation of Oral Bioavailability and Metabolism for Closely Related Cyclic Hexapeptides” (International Journal of Peptide Research and Therapeutics, 2017).

The data set is described as follows: in vitro. Conditions: dog, MDCK.

Structures are written as SMILES.

A word on the Papp: it is a coefficient for how fast a substance crosses the barrier. A lower Papp goes with poor permeation. `CC(C)C[C@@H]1NC(=O)[C@H](Cc2ccc(O)cc2)NC(=O)[C@H]2CCCN2C(=O)[C@H](CC(C)C)NC(=O)[C@H](CC(C)C)NC(=O)[C@@H](CC(C)C)NC1=O` [(1), [Tyr-Leu-D-Leu-Leu-Leu-D-Pro-]] showed a Papp of 2 ×10⁻⁶ cm/s. The same measure for `CC(C)C[C@@H]1NC(=O)[C@H](Cc2ccc(O)cc2)N(C)C(=O)[C@H]2CCCN2C(=O)[C@H](CC(C)C)NC(=O)[C@H](CC(C)C)N(C)C(=O)[C@@H](CC(C)C)N(C)C1=O` [(2), [NMe-Tyr-Leu-NMe-D-Leu-NMe-Leu-Leu-D-Pro]]: 11.4 ×10⁻⁶ cm/s.
